From ChEMBL document CHEMBL1141069, “Impact of induced fit on ligand binding to the androgen receptor: a multidimensional QSAR study to predict endocrine-disrupting effects of environmental chemicals” (J Med Chem, 2005)

Molecular target: T1, Androgen receptor (Rattus norvegicus, UniProt P15207)
T1 sequence (P15207 whole entry): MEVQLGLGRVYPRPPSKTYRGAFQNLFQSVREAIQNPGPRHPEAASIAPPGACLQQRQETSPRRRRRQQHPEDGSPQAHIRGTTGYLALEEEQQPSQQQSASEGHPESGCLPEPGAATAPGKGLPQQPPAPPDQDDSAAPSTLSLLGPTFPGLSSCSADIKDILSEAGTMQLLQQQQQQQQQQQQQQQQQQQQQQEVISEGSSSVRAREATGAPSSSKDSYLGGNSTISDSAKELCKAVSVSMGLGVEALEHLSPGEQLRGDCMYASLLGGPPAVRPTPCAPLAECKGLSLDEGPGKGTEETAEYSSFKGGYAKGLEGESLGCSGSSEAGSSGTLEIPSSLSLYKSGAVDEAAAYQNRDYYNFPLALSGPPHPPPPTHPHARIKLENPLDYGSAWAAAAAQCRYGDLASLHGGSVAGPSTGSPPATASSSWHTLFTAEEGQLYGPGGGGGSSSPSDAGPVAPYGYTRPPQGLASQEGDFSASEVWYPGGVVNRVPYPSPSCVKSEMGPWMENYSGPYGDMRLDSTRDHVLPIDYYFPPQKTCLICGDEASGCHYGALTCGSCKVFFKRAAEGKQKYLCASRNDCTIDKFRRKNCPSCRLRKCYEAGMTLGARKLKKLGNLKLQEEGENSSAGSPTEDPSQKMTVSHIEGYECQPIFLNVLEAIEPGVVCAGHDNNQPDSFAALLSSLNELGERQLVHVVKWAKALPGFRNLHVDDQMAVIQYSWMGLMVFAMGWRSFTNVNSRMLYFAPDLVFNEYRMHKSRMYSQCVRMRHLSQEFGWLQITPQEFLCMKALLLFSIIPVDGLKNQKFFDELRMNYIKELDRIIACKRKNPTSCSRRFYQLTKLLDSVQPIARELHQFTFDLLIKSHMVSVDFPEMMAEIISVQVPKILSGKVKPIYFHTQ

| Compound | IC50 [µM] |
| --- | --- |
| O=C1C2(Cl)C3(Cl)C4(Cl)C(Cl)(Cl)C5(Cl)C3(Cl)C1(Cl)C5(Cl)C24Cl (configuration not stated) [KEPONE] | 12 |
| CCC(=O)O[C@H]1CC[C@H]2[C@@H]3CCC4=CC(=O)CC[C@]4(C)[C@H]3CC[C@]12C [TESTOSTERONE PROPIONATE] | 1.91 |
